One compound from patent publication US9371281B2, “Indole derivatives as inhibitors of histone deacetylase” (Pharmacyclics LLC, priority 2006, dated 2016) can be followed below.

Some results are limits rather than exact numbers.

The target of the assay is T1, HDAC8 (Homo sapiens, UniProt Q9BY41).
T1 sequence (Q9BY41 1-377): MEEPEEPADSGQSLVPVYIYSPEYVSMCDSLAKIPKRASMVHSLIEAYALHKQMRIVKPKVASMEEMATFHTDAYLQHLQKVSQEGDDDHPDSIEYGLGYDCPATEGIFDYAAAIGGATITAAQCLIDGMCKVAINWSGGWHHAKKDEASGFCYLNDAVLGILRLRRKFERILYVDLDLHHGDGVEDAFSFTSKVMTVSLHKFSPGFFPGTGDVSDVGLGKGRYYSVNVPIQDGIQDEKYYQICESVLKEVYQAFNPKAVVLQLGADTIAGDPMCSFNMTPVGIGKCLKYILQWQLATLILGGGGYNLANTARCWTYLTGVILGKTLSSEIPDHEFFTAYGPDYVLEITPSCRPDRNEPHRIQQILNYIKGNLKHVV
Nature of the assay: Inhibition of HDAC8 deacetylase activity in vitro. The class given is biochemical.

As to `O=C(CCCCCCC(=O)Nc1ccccc1)NO` [SAHA, suberoylanilide hydroxamic acid, reference compound], the IC50 (usually the concentration that gives 50% inhibition) is above 100 nM.
